Measurements reported in ChEMBL document CHEMBL3425491, “Development of novel ACK1/TNK2 inhibitors using a fragment-based approach” (J Med Chem, 2015).

Sequences of proteins named here, by UniProt entry; tags and fusion partners are left off. A change or cut given only in a name is not applied to a line headed by its entry.
UniProt Q07912: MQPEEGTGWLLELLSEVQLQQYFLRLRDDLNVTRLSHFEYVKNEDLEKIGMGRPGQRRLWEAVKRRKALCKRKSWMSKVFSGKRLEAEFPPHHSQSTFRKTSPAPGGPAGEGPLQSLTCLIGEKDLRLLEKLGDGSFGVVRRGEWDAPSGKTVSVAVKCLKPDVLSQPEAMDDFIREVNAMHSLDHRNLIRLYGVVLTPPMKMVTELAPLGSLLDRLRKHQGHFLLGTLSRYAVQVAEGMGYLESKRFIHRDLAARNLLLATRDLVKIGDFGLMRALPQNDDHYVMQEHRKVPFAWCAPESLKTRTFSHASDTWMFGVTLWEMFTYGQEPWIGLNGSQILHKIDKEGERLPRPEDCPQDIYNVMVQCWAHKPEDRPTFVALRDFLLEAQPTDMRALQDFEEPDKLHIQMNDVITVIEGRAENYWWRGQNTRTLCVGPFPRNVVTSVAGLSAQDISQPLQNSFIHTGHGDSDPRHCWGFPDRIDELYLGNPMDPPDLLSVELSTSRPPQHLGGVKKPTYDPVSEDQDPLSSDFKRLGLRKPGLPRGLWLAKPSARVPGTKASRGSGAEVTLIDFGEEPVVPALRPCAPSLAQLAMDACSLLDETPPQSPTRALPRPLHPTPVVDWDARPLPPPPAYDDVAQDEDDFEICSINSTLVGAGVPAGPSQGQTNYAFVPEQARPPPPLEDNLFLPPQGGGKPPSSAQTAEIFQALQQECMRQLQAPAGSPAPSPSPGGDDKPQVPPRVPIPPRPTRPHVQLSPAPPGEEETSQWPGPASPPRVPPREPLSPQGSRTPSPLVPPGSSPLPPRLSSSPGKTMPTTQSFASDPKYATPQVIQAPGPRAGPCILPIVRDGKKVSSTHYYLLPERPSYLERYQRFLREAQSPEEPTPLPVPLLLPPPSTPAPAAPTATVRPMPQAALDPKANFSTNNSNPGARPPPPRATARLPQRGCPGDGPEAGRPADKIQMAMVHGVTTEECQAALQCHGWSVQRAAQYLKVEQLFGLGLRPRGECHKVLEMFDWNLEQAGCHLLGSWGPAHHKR

Biological target: Activated CDC42 kinase 1 (Homo sapiens, UniProt Q07912)
Experiment: Inhibition of human ACK1 kinase activity using biotinylated ATGRYYAMKIL - AKT peptide substrate assessed as phosphorylation at 10 uM by ELISA
Type: single protein

Compound | inhibition [%]
Brc1cnc(Nc2ccc(N3CCNCC3)cc2)nc1NCC1CCCO1 (racemic) | 85.5
Cc1cc(Nc2ncc(Br)c(NCC3CCCO3)n2)ccc1O (stereo not drawn) | 75.5
Oc1ccc(Nc2ncc(Br)c(NCC3CCCO3)n2)cc1 (stereo not drawn) | 83
